Earlier results on one compound are cited in patent publication US11129825B2, “Polysubunit opioid prodrugs resistant to overdose and abuse” (Elysium Therapeutics, Inc., priority 2015, dated 2021).

The test system of the data set is opioid receptor. Conditions: cited from earlier work.

`C=CCN1CC[C@]23c4c5ccc(O)c4O[C@H]2C(=O)CC[C@@]3(O)[C@H]1C5` [naloxone]: the “Effect on morphine-like opioid agonists” value (0.4-0.8 mg intramuscularly or intravenously, in man) is recorded as “prevent or reverse the effects of morphine-like opioid agonists”. The “Blockade of the effect of heroin” value (one mg intravenously vs 25 mg of heroin) was “completely block the effect of 25 mg of heroin”.
